Chains of the proteins cited; added tags and fusions are not shown.
UniProt P32245, whole entry: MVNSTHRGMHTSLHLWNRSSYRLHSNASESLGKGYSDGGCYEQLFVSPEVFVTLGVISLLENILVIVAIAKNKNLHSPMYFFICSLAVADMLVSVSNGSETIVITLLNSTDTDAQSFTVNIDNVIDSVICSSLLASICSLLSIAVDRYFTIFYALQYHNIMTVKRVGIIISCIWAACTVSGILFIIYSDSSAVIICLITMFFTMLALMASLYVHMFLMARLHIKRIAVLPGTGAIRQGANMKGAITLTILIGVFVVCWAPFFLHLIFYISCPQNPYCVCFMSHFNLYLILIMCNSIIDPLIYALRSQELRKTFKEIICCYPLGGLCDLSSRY

In patent US6251605A, “Yeast cells having mutations in Cav1 and uses therefor” (priority 1999, dated 2001):

Molecular target: T1, melanocortin receptor 4 (MCR4) (Homo sapiens, UniProt P32245)
T1 construct: yeast alpha-factor leader (N); expressed in transfected cells; host or cells: S. cerevisiae CY0151 (wild type (so in the source)) and CY14804 (cav1), plasmid Cp4421
Assay: β-galactosidase assay in yeast expressing MCR4
Assay type: cell-based
Settings: CY14804 (cav1) versus wild type, 2 hours incubation

NDP-α-MSH
increase of ligand-induced level of β-galactosidase activity in cav1 background: 2-3 fold
